The assay deals with Platelet-derived growth factor receptor beta (Homo sapiens, UniProt P09619). The experiment in a line: biochemical.

Protein sequences, listed by entry. Tags and fused reporters are not part of them.
UniProt P09619, whole entry: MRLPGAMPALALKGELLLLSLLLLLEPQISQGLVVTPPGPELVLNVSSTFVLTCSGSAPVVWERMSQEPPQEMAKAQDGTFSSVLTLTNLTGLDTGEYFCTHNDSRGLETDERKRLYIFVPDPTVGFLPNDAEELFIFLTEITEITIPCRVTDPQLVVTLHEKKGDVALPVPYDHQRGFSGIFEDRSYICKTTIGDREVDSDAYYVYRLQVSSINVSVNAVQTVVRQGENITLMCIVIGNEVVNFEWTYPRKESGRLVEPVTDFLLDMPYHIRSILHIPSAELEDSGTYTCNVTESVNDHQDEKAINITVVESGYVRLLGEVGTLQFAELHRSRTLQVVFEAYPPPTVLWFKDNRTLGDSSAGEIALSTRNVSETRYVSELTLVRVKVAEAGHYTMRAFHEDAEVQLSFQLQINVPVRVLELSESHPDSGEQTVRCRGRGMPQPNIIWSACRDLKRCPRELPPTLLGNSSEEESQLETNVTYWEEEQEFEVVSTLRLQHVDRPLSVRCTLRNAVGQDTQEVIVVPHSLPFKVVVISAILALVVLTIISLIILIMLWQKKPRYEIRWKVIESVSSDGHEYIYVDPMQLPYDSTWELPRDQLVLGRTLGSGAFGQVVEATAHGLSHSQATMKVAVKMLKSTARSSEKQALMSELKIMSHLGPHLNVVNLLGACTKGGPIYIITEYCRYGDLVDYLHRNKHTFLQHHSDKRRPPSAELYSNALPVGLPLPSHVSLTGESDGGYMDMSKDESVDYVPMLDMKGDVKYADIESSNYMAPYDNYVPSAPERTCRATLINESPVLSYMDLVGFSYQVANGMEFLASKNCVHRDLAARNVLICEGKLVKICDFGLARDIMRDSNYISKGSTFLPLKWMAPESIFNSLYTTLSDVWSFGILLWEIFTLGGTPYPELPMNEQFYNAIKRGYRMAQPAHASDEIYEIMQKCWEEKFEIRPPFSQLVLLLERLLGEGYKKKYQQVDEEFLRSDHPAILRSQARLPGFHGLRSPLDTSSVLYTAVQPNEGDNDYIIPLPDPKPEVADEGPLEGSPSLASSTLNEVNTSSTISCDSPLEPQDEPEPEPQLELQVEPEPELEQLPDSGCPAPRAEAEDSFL

As a reminder, the IC50 is the point on the concentration scale where inhibition reaches its midpoint. Higher therefore signals weaker potency.

Consider `CSCC(CO)NCc1ccc2c(c1)NC(=O)c1c(Nc3cc(O)c(C)cc3F)ccnc1N2` (stereo unspecified), for which the IC50 worked out at 2.08 nM.

The values are drawn from ChEMBL document CHEMBL5725448, “Substituted pyridobenzodiazepinone-derivatives and use thereof” (2018).
